# Properties, as collected for the OPERA models

Source: data files of OPERA 2.9 (Mansouri et al.), github.com/kmansouri/OPERA.

The melting point is given in degrees Celsius.
The boiling point refers to atmospheric pressure (760 mmHg), by the definition of the set.
The octanol-water partition coefficient is given as log10; larger values mean a more lipophilic compound.
Solubility in water is on a log10 molar scale (set defined at 25 °C).
Vapor pressure is log10 of mmHg; the set covers 15 to 30 °C, mostly 20 to 25 °C.
Cells with "–" have no entry in this list.

| SMILES | melting point (°C) | bp (°C) | log Kow | log solubility (log10 mol/L) | vapor pressure (log10 mmHg) |
|---|---|---|---|---|---|
| CC(C)(O)C(=O)c1ccccc1 | – | – | 1.62 | – | -2.247 |
| C=CCOCC(CC)(CO)CO | – | 271.9 | 1.4 | – | – |
| O=C(O)CCCCO/N=C(/c1cccnc1)c1cccc(C(F)(F)F)c1 | – | – | 4.3 | -4.64 | – |
| COC(=O)c1cc(F)ccc1[N+](=O)[O-] | – | – | 2.4 | – | -0.824 |
| CCC[C@H]1CC[C@H](c2ccc(-c3ccc(-c4cc(F)c(OC(F)(F)F)c(F)c4)c(F)c3)cc2)CC1 | – | 468 | – | -7.391 | -9.031 |
| Cc1cc(OI)c(C(C)C)cc1-c1cc(C(C)C)c(OI)cc1C | – | – | 4.8 | -6.837 | -3.881 |
| Cc1ccc(Nc2ccc3c4c(cc(=O)n3C)-c3ccccc3C(=O)c24)cc1 | 268.2 | – | 4.689 | -8.689 | – |
| CCOCC(C)OCC (stereo not given) | – | 123.9 | 1.1 | -0.397 | 1.157 |
| CCCCCCC(O)CCCCCCCCCCC(=O)OC (stereo not given) | – | – | 5.467 | -3.907 | – |
| CCCCCCCCC(=O)OCC(COC(=O)CCCCCCCC)(COC(=O)CCCCCCCC)COC(=O)CCCCCCCC | 4 | – | – | -8.366 | -5.292 |
| FC(F)(Br)CBr | -61.3 | 92.5 | – | – | – |
| CC(C)(c1ccccc1)C(C)(C)c1ccccc1 | – | – | 6.59 | -6.474 | -3.821 |
| CO[Si](CCCN=C=O)(OC)OC | – | – | – | -3.257 | -1.274 |
| CCCCNS(=O)(=O)c1ccccc1 | – | – | 2.01 | -2.676 | -6.526 |
| CN(/N=C/c1cc[n+](C)cc1)c1ccccc1.COS(=O)(=O)[O-] | – | – | 0.02 | – | -9.698 |
| CCO[Si](CN1CCOCC1)(OCC)OCC | -100.2 | 241.2 | – | – | – |
| O=C(Cl)COc1ccc(Cl)cc1Cl | 5.8 | – | 0.915 | -2.904 | -3.625 |
| CCCCC(CC)CNC(=O)CC(C)CC(C)(C)C (stereo not given) | -77 | 330 | – | -5.391 | -3.444 |
| CCCCCCCCCCCCCCCCCCCCCC(=O)OCCCCCCCCCCCCCCCCCC | – | – | – | -8.072 | -4.292 |
| CC(O)C(=O)OCC1CC=CCC1 (stereo not given) | – | – | 2.3 | – | -2.216 |
| C=COCCCCOC=C | -7.95 | – | 2.9 | -2.648 | 0.051 |
| CC(C)CCCCCCCCCCOC(=O)CCCCC(=O)OCCCCCCCCCCC(C)C | -61 | 321.1 | – | -5.659 | -4.393 |
| O=C(CCc1ccc(O)cc1)Nc1ccccc1C(=O)O | 189.5 | – | 3.05 | -3.451 | – |
| C=C[C@@H](COC(C)=O)OC(C)=O | – | – | 1.53 | – | -0.782 |
| NCCNCCS(=O)(=O)[O-].[Na+] | – | – | -3.1 | – | -4.199 |
| C=C(c1ccc(C(=O)O)cc1)c1cc2c(cc1C)C(C)(C)CCC2(C)C | – | – | 6.9 | -6.369 | – |
| N#CCCOc1ccccc1 | – | 266 | – | -1.915 | -2.031 |
| CC1(CO)CC1CC1CC2CC2(C)C1(C)C (stereo not given) | -50.08 | – | 4.8 | -4.767 | -1.648 |

Extract of 2 entries:

| SMILES | melting point (°C) | bp (°C) | log Kow | log solubility (log10 mol/L) | vapor pressure (log10 mmHg) |
|---|---|---|---|---|---|
| CCCCCCCCCCCCCCCCCCCCCC(=O)OCCCCCCCCCCCCCCCCCC | – | – | – | -8.072 | -4.292 |
| C=C(c1ccc(C(=O)O)cc1)c1cc2c(cc1C)C(C)(C)CCC2(C)C | – | – | 6.9 | -6.369 | – |

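The OPERA project collected these measurements from public sources as training and test data for property models. One number stands for a compound and property, with no spread given. Method and conditions are not stated for these values. The measured form (salt, isomer or mixture) is not always the one drawn. Unmarked limits or estimates from the upstream databases cannot be ruled out.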